By UniProt entry, the sequences of proteins in these tests, tags left out. Residues count along the entry.
UniProt P43220, 24-463: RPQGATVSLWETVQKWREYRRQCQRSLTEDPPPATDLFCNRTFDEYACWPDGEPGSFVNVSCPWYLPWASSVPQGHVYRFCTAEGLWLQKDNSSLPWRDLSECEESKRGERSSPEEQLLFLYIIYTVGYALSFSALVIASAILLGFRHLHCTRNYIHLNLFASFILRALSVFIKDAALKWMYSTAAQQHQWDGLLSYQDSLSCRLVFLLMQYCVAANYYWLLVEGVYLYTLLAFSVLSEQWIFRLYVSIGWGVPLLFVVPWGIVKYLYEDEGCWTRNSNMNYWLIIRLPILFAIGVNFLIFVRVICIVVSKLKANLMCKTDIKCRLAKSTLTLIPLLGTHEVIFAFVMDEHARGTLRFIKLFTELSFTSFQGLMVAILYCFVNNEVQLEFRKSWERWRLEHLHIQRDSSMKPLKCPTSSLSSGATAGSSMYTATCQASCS

According to PMC8301998, “Discovery of Novel Allosteric Modulators Targeting an Extra-Helical Binding Site of GLP-1R Using Structure- and Ligand-Based Virtual Screening” (Biomolecules, 2021):

Experiments:
GLP-1R [1] = target: T1, GLP-1R (Homo sapiens, UniProt P43220); test: cell-based
GLP-1R [2] = target: T1, GLP-1R; conditions: GLP-1R expressing CHO-K1 cells
GLP-1R [3] = target: T1, GLP-1R; test: cell-based; remark: listed apart in the source

Q: With `COc1ccc(NC(=O)c2n[nH]c3ccc([N+](=O)[O-])cc23)cc1NS(=O)(=O)c1ccc(F)cc1` [C26] as the compound, how does the IC50 (GLP-1R [1]) read?
A: 1.41 µM

Q: What about the “Modulation of GLP-1-elicited cAMP accumulation / GLP-1 potency (in words)” value (GLP-1R [2]) of the same compound?
A: positively modulated GLP-1 potency

Q: And the EC50 (GLP-1R [3])?
A: 3.98 µM

Q: Which results are given for `COc1ccccc1NS(=O)(=O)c1cc(NC(=O)c2ccc(=O)n(C)n2)ccc1N1CCCC1` [C22]?
A: IC50 (GLP-1R [1]): 0.631 µM; Modulation of GLP-1-elicited cAMP accumulation / GLP-1 potency (in words) (GLP-1R [2]): positively modulated GLP-1 potency; EC50 (GLP-1R [3]): 0.501 µM

Q: With `CCOc1ccc(S(=O)(=O)Nc2ccccc2C(=O)OCC(=O)Nc2cc(C)on2)cc1` [C13] as the compound, how does the IC50 (GLP-1R [1]) read?
A: 1.48 µM

Q: What about the “Modulation of GLP-1-elicited cAMP accumulation / GLP-1 potency (in words)” value (GLP-1R [2]) of the same compound?
A: positively modulated GLP-1 potency

Q: What about the EC50 (GLP-1R [3]) of the same compound?
A: 15.8 µM

Q: What does the source list for `O=C(Cn1c(COc2ccccc2)nc2ccccc21)Nc1ccc(Cc2nnn[nH]2)cc1` [C10]?
A: IC50 (GLP-1R [1]): 45.7 µM; Modulation of GLP-1-elicited cAMP accumulation / GLP-1 potency (in words) (GLP-1R [2]): positively modulated GLP-1 potency; EC50 (GLP-1R [3]): 501 µM

Q: What does the source list for `O=C(CSc1nnc[nH]1)Nc1sc2c(c1C(=O)NCc1ccccc1)CCCC2` [C31]?
A: IC50 (GLP-1R [1]): 1.29 µM; Modulation of GLP-1-elicited cAMP accumulation / GLP-1 potency (in words) (GLP-1R [2]): positively modulated GLP-1 potency; EC50 (GLP-1R [3]): 10 µM
